Laboratory results: US8394765B2, “Methods of treating obesity with two different anti-obesity agents” (Amylin Pharmaceuticals LLC, priority 2004, dated 2013)

Assays:
[1] = treated test animals; e.g. provoking marked hyperlactemia followed by hyperglycemia; cited from earlier work
[2] = Adsorption onto glass container in liquid form; assay type: physicochemical
[3] = compared to human amylin; cited from earlier work

CC[C@H](C)[C@H](NC(=O)[C@@H]1CCCN1C(=O)CNC(=O)[C@H](Cc1ccccc1)NC(=O)[C@H](CC(N)=O)NC(=O)[C@H](CC(N)=O)NC(=O)[C@H](CO)NC(=O)[C@H](CO)NC(=O)[C@H](Cc1c[nH]cn1)NC(=O)[C@@H](NC(=O)[C@H](CC(C)C)NC(=O)[C@H](Cc1ccccc1)NC(=O)[C@H](CC(N)=O)NC(=O)[C@H](C)NC(=O)[C@H](CC(C)C)NC(=O)[C@H](CCCNC(=N)N)NC(=O)[C@H](CCC(N)=O)NC(=O)[C@@H](NC(=O)[C@H](C)NC(=O)[C@@H]1CSSC[C@H](NC(=O)[C@@H](N)CCCCN)C(=O)N[C@@H](CC(N)=O)C(=O)N[C@@H]([C@@H](C)O)C(=O)N[C@@H](C)C(=O)N[C@@H]([C@@H](C)O)C(=O)N1)[C@@H](C)O)C(C)C)C(=O)N[C@@H](CC(C)C)C(=O)N1CCC[C@H]1C(=O)N1CCC[C@H]1C(=O)N[C@H](C(=O)N[C@@H](CC(N)=O)C(=O)N[C@H](C(=O)NCC(=O)N[C@@H](CO)C(=O)N[C@@H](CC(N)=O)C(=O)N[C@H](C(=O)N[C@@H](Cc1ccc(O)cc1)C(N)=O)[C@@H](C)O)C(C)C)[C@@H](C)O [pramlintide]
amylin activity in vivo [1]: show amylin activity in vivo
tendency to adsorb onto the glass in a glass container [2]: does not have a tendency to adsorb onto the glass
solubility and stability characteristics [3]: more desirable solubility and stability characteristics
